scFv variants of Ab-14 (light chain) against a SARS-CoV-2 spike peptide

Source: Li et al. 2023 (doi:10.1038/s41467-023-39022-2), MIT Lincoln Laboratory and A-Alpha Bio; data file from the FLAb repository.

Target peptide (SARS-CoV-2 spike, HR2 region): PDVDLGDISGINAS

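The starting antibody came from a phage panning campaign against this peptide. Designed CDR sequences, proposed from the first random library and measured here. Their group label is 14L_En_Gen (En: ensemble of fine-tuned language models; Gen: genetic algorithm). In AlphaSeq, yeast of one mating type display the scFv and yeast of the other type display the target. After mating in shaken culture at 30 °C for 16 h, diploids were selected and their barcode pairs sequenced. The ratio of observed to expected reads was calibrated, replicate by replicate, on BCL2-family standards whose Kd was known from biolayer interferometry. Mating was done six times.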

Ab-14 is the parent antibody, in scFv form: VH, then a 15-residue (Gly4Ser)3 linker, then VL. The heavy chain is unchanged in all variants.
VH: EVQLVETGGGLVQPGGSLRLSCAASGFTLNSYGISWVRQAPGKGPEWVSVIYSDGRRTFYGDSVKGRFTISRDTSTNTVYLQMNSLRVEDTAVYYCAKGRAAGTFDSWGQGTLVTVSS
VL: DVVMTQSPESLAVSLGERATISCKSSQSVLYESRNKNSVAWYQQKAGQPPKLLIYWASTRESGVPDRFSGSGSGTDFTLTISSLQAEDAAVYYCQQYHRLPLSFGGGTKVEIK

Variants are written as CDR1, CDR2 and CDR3 of the light chain (limits as in the source). Parent: KSSQSVLYESRNKNSVA, WASTRES, QQYHRLPLS. Numbers give log10(Kd / nM), so 0 is 1 nM and 3 is 1 µM. Smaller is tighter. Replicates are averaged; those with no signal do not enter the mean. "nd" means that the variant was in the library but no mating with the target was seen in that replicate; the authors take this as a sign of poor binding, and no number exists. Values of this round are not directly comparable with the first-round values of the same sequences. Empty control strains, which show no peptide, gave a signal in 4% of pairings with all light chain designs; the median was 2.64 and 95% of these signals were weaker than 1.59. No background was subtracted. The control count says in how many pairings with the empty strains this scFv gave a signal, with their mean in brackets. The authors' rule: three or more of the six replicates give a measured affinity, fewer mean a poor binder. Of ten entries with the parent sequence, four were seen in most replicates (averages 0.34 to 2.37), three in one and three in none, so single entries are noisy.

| CDR-L1 | CDR-L2 | CDR-L3 | log10 Kd (nM) by replicate | mean log10 Kd (nM) | control signals |
|---|---|---|---|---|---|
| KLYEMLAVTMEHIRNVA | DNSTREY | QQYNRLPLS | 3.76 5.01 3.74 nd 2.99 nd | 3.88 | 2/18 (3.96) |
| QIYQAMHTLSQMKDNVA | DVNERGD | QQYFRLPLS | 0.39 0.33 0.30 0.17 0.46 0.45 | 0.35 | 0/18 |
| MISQLYNMGSFAINSVA | QASMRNA | QQYDRLPLI | 1.71 1.11 1.40 1.32 1.95 2.05 | 1.59 | 2/18 (1.80) |
| MVNGIMDHLSKNTNNVA | ETSTRGS | QQYERLPLS | -0.50 -0.19 -0.50 -0.59 -0.52 -0.13 | -0.41 | 0/18 |
| KLSSVTGHMSMAKNNVA | EMETREK | QQYERLPLS | 0.96 0.96 1.24 1.14 1.21 1.07 | 1.10 | 0/18 |
| KLSNVTGHMSMAKNNVA | EMVTREN | QQYNRLPLS | 0.68 0.89 0.42 0.80 0.57 0.60 | 0.66 | 2/18 (2.66) |
| MVSQLMLWGHLAKNSIA | EAEHRYN | QQYDRLPLF | 2.24 2.42 1.39 1.32 1.66 1.53 | 1.76 | 0/18 |
| TISQMSTLFSQTINNVA | EVSTREQ | QQYDRLPLI | 0.68 1.02 1.15 0.54 0.76 1.13 | 0.88 | 2/18 (2.85) |
| MISQLYNMGQFAINSVA | QASQRCN | QQYDRLPLI | 1.51 1.29 1.63 1.50 1.39 2.18 | 1.58 | 3/18 (2.90) |
| MISQLYNMGQFAINSVA | QASLRCN | QQYDRLPLI | 2.18 0.62 0.90 1.70 1.75 1.09 | 1.37 | 2/18 (2.59) |
| IVSQLMLWGLHAKNSIA | EAVTRYN | QQYDRLPLI | nd nd nd nd nd 2.33 | 2.33 | 2/18 (3.39) |
| MMSQVTGMESRQRNNVA | QTSTREP | QQYDRLPLI | 0.52 0.93 0.72 0.14 0.13 0.64 | 0.51 | 2/18 (2.00) |
| KLSMTTEMEHKNRNSVA | ELVTRMS | QQYNRLPLS | 0.52 0.77 0.49 0.42 0.59 0.68 | 0.58 | 0/18 |
| KIGMTLNQLMHGKNNVA | DLVMREK | QQYHRLPLS | 0.53 0.39 0.40 0.25 0.49 0.54 | 0.43 | 2/18 (3.17) |
| RLSALSGIQEVNRNSVA | QNSTREQ | QQYDRLPLS | nd nd nd nd nd nd | nd | 0/18 |
| HMSMLTLMGMRQRNSVA | QMTMREN | QQYDRLPLV | 0.81 1.21 1.33 1.08 0.77 2.60 | 1.30 | 0/18 |
| KLSMTTEMSLKNRNSVA | ELVTRES | QQYNRLPLS | 1.07 0.87 0.63 1.00 1.85 1.06 | 1.08 | 0/18 |
| IVSQLMLWGMHHKNSIA | EAQTKLN | QQYERLPLF | nd nd nd nd nd nd | nd | 0/18 |
| SLYEVSEELSGKKHSVA | DNSTRGE | QQYFRLPLE | 0.93 0.59 0.79 0.50 0.35 1.09 | 0.71 | 1/18 (2.83) |
| MMSQVTGMESRQRNNVA | QTSTREA | QQYDRLPLI | 0.07 0.06 -0.05 -0.14 -0.21 0.30 | 0.01 | 0/18 |
| MISNVMNTLTRNGNNVA | DLAERED | QQYFRLPLS | -0.10 -0.16 0.07 -0.12 -0.31 0.13 | -0.08 | 0/18 |
| MISQLSNMGQFAINSVA | QASLRND | QQYDRLPLM | 1.07 0.56 0.74 0.73 0.67 0.76 | 0.75 | 1/18 (2.27) |
| KIGATLNMMSHKKNNVA | DLVTREE | QQYHRLPLS | 0.39 0.27 0.42 0.36 0.31 0.29 | 0.34 | 1/18 (3.16) |
| KLSQITGHLMVSKNNVA | EMETREN | QQYDRLPLS | 0.87 0.50 0.74 0.39 0.52 0.58 | 0.60 | 0/18 |
| MVSQLMLWGLHAKNSIA | EAQTRLN | QQYDRLPLE | 1.30 nd nd nd 1.67 1.53 | 1.50 | 0/18 |
| KLSMITGHLSIAKNNVA | EMETREN | QQYERLPLS | 0.28 0.26 0.11 0.16 0.46 0.55 | 0.30 | 1/18 (2.27) |
| MISQVMNTLTRNGNNVA | DLTERTK | QQYFRLPLS | 0.26 0.13 0.83 0.78 0.42 0.36 | 0.46 | 0/18 |
| IVSQLMLWGWSAKNSIA | EAVTRLN | QQYDRLPLF | nd nd nd nd 1.87 nd | 1.87 | 0/18 |
| KVSEFMKGLMMRKDSIA | DNTTRES | QQYDRLPLS | nd nd nd nd nd nd | nd | 0/18 |
| MISQIYNMGQFAINSVA | QASERNN | QQYDRLPLM | 1.43 1.18 1.57 2.05 1.36 1.44 | 1.51 | 1/18 (1.55) |
| MLGDVGFGLTRKEDSVA | DNDTREE | QQYDRLPLS | 2.02 2.75 1.37 1.77 2.29 1.90 | 2.02 | 0/18 |
| HMSMLTLQGMRHRNSVA | QMTTRVN | QQYDHLPLS | nd 1.98 1.84 3.43 1.87 1.95 | 2.21 | 3/18 (2.44) |
| TLSQMSGVEQVKHNNVA | ENSTREK | QQYDRLPLT | 2.58 0.83 0.77 1.82 1.21 1.29 | 1.42 | 1/18 (4.67) |
| IVSQLMLWGWHAKNSIA | EAQTRLN | QQYDRLPLI | nd nd 0.33 0.30 0.25 1.79 | 0.67 | 0/18 |
| HMSALTLQGMRMRNSVA | QMTTREN | QQYDRLPLS | 1.13 0.76 0.19 0.68 0.49 1.08 | 0.72 | 1/18 (1.63) |
| KVSEFMKGLMMRTDSIA | DNVTRNS | QQYDRLPLS | 1.53 1.50 1.61 1.58 1.81 1.78 | 1.64 | 1/18 (4.17) |
| MISQLMNMGQFAINSVA | QASIRNA | QQYDRLPLI | nd nd 1.12 1.36 1.92 2.34 | 1.69 | 0/18 |
| QLYEMNYELSGKTHSVA | DNSTRGD | QQYFRLPLE | 1.03 1.57 1.51 1.31 1.06 1.44 | 1.32 | 3/18 (2.78) |
| TISQITSLFSQTINNVA | EVSTREQ | QQYDRLPLS | 0.84 0.56 0.64 0.84 1.23 0.79 | 0.82 | 0/18 |
| IVSQMMLWGMHAKNSIA | EAVTRLN | QQYDRLPLF | nd 1.78 nd 2.58 2.62 3.02 | 2.50 | 1/18 (2.21) |
| TLYGLSNSMSKEKNNVA | EMSTREN | QQYDRLPLI | nd 1.69 1.82 1.44 1.36 1.77 | 1.62 | 0/18 |
| MISNVMNTLTRHGNNVA | DLSERED | QQYFRLPLS | 1.06 0.76 0.89 1.00 0.87 1.46 | 1.01 | 1/18 (2.01) |
| HMSALTMLGMRQKNSVA | QMTTREN | QQYDRLPLV | 0.61 0.84 0.32 0.48 0.87 1.03 | 0.69 | 1/18 (2.83) |

Again, the first 3 entries without any signal:

| CDR-L1 | CDR-L2 | CDR-L3 | log10 Kd (nM) by replicate | mean log10 Kd (nM) | control signals |
|---|---|---|---|---|---|
| RLSALSGIQEVNRNSVA | QNSTREQ | QQYDRLPLS | nd nd nd nd nd nd | nd | 0/18 |
| IVSQLMLWGMHHKNSIA | EAQTKLN | QQYERLPLF | nd nd nd nd nd nd | nd | 0/18 |
| KVSEFMKGLMMRKDSIA | DNTTRES | QQYDRLPLS | nd nd nd nd nd nd | nd | 0/18 |